Binding of CDR-mutated scFvs to a peptide of the spike HR2 region

Binding partner: SARS-CoV-2 spike HR2 peptide, sequence PDVDLGDISGINAS.

The variants keep the light chain, the linker and the frameworks of Ab-14 (scFv order VH, a (GGGGS)3 linker, VL).
VH: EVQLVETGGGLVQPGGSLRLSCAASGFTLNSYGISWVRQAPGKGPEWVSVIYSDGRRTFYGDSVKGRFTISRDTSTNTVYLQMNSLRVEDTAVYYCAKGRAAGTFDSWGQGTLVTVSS
VL: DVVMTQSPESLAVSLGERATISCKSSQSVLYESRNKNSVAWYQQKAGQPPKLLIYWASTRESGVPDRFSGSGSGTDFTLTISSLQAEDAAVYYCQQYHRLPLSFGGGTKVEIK

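The starting antibody came from a phage panning campaign against this peptide. This is the validation round: designs drawn from the data on random variants, tested in the same kind of assay. Several design methods are mixed in this list. AlphaSeq pools MATa yeast showing the antibodies with MATalpha yeast showing the peptide. After mating in shaken culture at 30 °C for 16 h, diploids were selected and their barcode pairs sequenced. Each replicate has its own calibration line, from reference interactions of the BCL2 family. The assay was run in six technical replicates.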

Each variant is given by its three heavy chain CDRs, as the data file delimits them; those of the parent are GFTLNSYGIS, VIYSDGRRTFYGDSVK, GRAAGTFDS.
This list holds designs with at most six substitutions.
Kd is apparent (estimated from mating counts) and averaged on the log scale over replicates with a signal. Smaller is tighter.
"nd" means that the variant was in the library but no mating with the target was seen in any replicate; the authors take this as a sign of poor binding, and no number exists.

The variant GFNLESYGRS, VIYSDGRRTFYGDSVK, GRAAVRFDS showed 2.8 nM (1 of 6 replicates; controls 0 of 18).
The variant GFTLNSYGIS, VIYSDGRRTFYSDSVK, GRAGTTFNS showed nd (0 of 6 replicates; controls 0 of 18).
The variant GFELNSYGIS, VIYSDGRRTFYKDSVK, GNAAGTFDS showed 4.2 nM (6 of 6 replicates; controls 0 of 18).
The variant GFTLNSYGIS, VIYSDGRRTFYIDSVK, GRAAGEFDS showed 33 nM (3 of 6 replicates; controls 0 of 18).
The variant GFTNNSYGIS, VIYSDGRRTMYGDSVK, GRAAGTFSS showed nd (0 of 6 replicates; controls 2 of 18).
The variant GFNLNSYGIS, VIYSDGRRTFYGDSVK, GQVAGTFDS showed 180 pM (6 of 6 replicates; controls 0 of 18).
The variant GFWLNSYGIS, VIYSDGRRTWYDDSVK, GRHAGTFDS showed 890 nM (3 of 6 replicates; controls 1 of 18).
The variant GFTLRSYGIS, VIYSDGRRTFYGDSVK, TRAAGTFDS showed nd (0 of 6 replicates; controls 0 of 18).
The variant GFSLNEYGIS, VIYSDGRRTFYADHVK, GNAAGTFDS showed 1.0 nM (6 of 6 replicates; controls 0 of 18).
The variant GFQLNEYGIS, VIYSDGRRTFYGDSVK, GRTAGTFDG showed 1.6 nM (6 of 6 replicates; controls 0 of 18).
The variant GFTLNSYGIS, VIYSDGVRTFYSDSVK, GQAAGTFDS showed 13 nM (6 of 6 replicates; controls 0 of 18).
The variant GFTLNDYGIS, VIYSDGRRTFYDDSYK, GRTAGTFDW showed nd (0 of 6 replicates; controls 0 of 18).
The variant GFTLNSYGIS, VIYSDGRRTFYGDSVK, GRVAGTFSS showed 180 nM (1 of 6 replicates; controls 0 of 18).
The variant GFSLNSYGIS, VIYSDGRRTFYIDSVK, GKQAGTFDS showed 20 nM (5 of 6 replicates; controls 0 of 18).
The variant GFTLDSYGIS, VIYSDGRRTFYGDSVK, GRIAGTFDS showed 6.2 nM (6 of 6 replicates; controls 1 of 18).
The variant GFTLNSYGIS, VIYSDGRRTFYSDRVK, GQAAGTFDK showed 4.3 nM (5 of 6 replicates; controls 0 of 18).
The variant GFSLNSYGIS, VIYSDGRRTFYSDSVK, GDAAGTFDS showed 630 pM (6 of 6 replicates; controls 0 of 18).
The variant GFDLNSYGIS, VIYSDGRRTFYADSVK, GRAAGTFDS showed 2.9 nM (12 of 12 replicates; controls 1 of 36).
The variant GFSLNSYGIS, VIYSDGRRTFYGDSVK, GKEAGTFDN showed 6.3 nM (6 of 6 replicates; controls 0 of 18).
The variant GFTRNSYGIS, VIYSDGRRTFYGDSVK, GRAAGSFDS showed 18 nM (6 of 6 replicates; controls 1 of 18).
The variant GFTLNKYGIS, VIYSDGRRTFYGDEVK, GRLAGTFDS showed nd (0 of 6 replicates; controls 0 of 18).
The variant GFNLNSYGIS, VIYSDGRRTFYGDPVK, GRTAGTFDS showed 33 nM (1 of 6 replicates; controls 1 of 18).
The variant GFELNEYGIS, VIYSDGRRTFYMDSVK, GRNAGTFDS showed 3.7 nM (6 of 6 replicates; controls 1 of 18).
The variant GETLNSYGIS, VIYSDGRRTFYGPSVK, GRAAGTFDS showed 470 nM (3 of 6 replicates; controls 0 of 18).
The variant GFTLNDYGIS, VIYSDGRRMVYIDSVK, GRAAGTFDS showed 2.6 nM (1 of 6 replicates; controls 0 of 18).
The variant GFTLNSYGIS, VIYSDGRRTFYSDSVK, GVSAGTFDS showed 92 nM (6 of 6 replicates; controls 0 of 18).
The variant GFTLNSYGIS, VIYSDGIRTFYGDSVK, GRAAGTWDS showed 67 nM (6 of 6 replicates; controls 0 of 18).
The variant GFRLNSYGIS, VIYSDGKRTFYGDSVK, GRAAGTFSS showed nd (0 of 6 replicates; controls 0 of 18).
The variant GFTLNSYGIS, VIYADGRRTFYADSVK, GEAAGTFDS showed 480 pM (6 of 6 replicates; controls 0 of 18).
The variant GFTLNEYGIS, VIYSDGRRTFYGDSVK, GRAAVTFDE showed nd (0 of 6 replicates; controls 0 of 18).
The variant GFDLNSYGIS, VIYSDGRRFFYGDSVK, GLAAGWFNS showed nd (0 of 6 replicates; controls 0 of 18).
The variant GFELNSYGIS, VIYSDGRRTFYSDSVK, GKQAGTFDS showed 5.9 nM (5 of 6 replicates; controls 0 of 18).
The variant GFTLNEYGIS, VIYADGYRTFYGDSVK, GRAAGTFDS showed 1.4 nM (6 of 6 replicates; controls 0 of 18).
The variant GFTLNSYGIS, VIYSDGRRTFYIDSVK, GRAAGTTDS showed 1.6 nM (5 of 6 replicates; controls 0 of 18).
The variant GFSLNSYGIS, VIYSDGRRTFYEDSVK, GEAAGTFDS showed 1.8 nM (6 of 6 replicates; controls 0 of 18).
The variant GFSLNSYGIS, VIYSDGRRTFYADSVK, GTTAGTFDS showed 490 pM (6 of 6 replicates; controls 1 of 18).
The variant GFSLNEYGIS, VIYSDGRRTFYGDDVK, GRTAGTFDS showed 1.2 nM (6 of 6 replicates; controls 0 of 18).
The variant GFTLNSYGIS, VIYSDGRRTFYSDSVK, GRVVGTFDS showed nd (0 of 6 replicates; controls 0 of 18).
The variant GFTLNDYGIS, VIYSDGRRTFYSDSVV, GRAGGTFDS showed 16 nM (6 of 6 replicates; controls 0 of 18).
The variant GFELNSYGIS, VIYSDGRRTFYGDSVK, GRNAGTFDT showed 6.4 nM (6 of 6 replicates; controls 0 of 18).
The variant GFSLNSYGIS, VIYSDGRRTFYGDSVK, GKAAGTFDT showed 10 nM (6 of 6 replicates; controls 1 of 18).

The closing 4 entries, repeated:

Variant GFTLNSYGIS, VIYSDGRRTFYSDSVK, GRVVGTFDS showed nd (0 of 6 replicates; controls 0 of 18).
Variant GFTLNDYGIS, VIYSDGRRTFYSDSVV, GRAGGTFDS showed 16 nM (6 of 6 replicates; controls 0 of 18).
Variant GFELNSYGIS, VIYSDGRRTFYGDSVK, GRNAGTFDT showed 6.4 nM (6 of 6 replicates; controls 0 of 18).
Variant GFSLNSYGIS, VIYSDGRRTFYGDSVK, GKAAGTFDT showed 10 nM (6 of 6 replicates; controls 1 of 18).

The authors' rule: three or more of the six replicates give a measured affinity, fewer mean a poor binder.
Of ten entries with the parent sequence, four were seen in most replicates (averages 2.2 nM to 240 nM), three in one and three in none, so single entries are noisy.
The range of this assay differs from that of the first round, and the authors advise against merging the two.
Some sequences occur more than once in the pool; their replicates are pooled.
As a blank, each scFv also met three strains without target: over all heavy chain designs, 1% of these pairings were detected, typically at 120 nM and seldom below 7.0 nM. The control count says in how many pairings with the empty strains this scFv gave a signal.

Reference: Li et al. 2023, doi:10.1038/s41467-023-39022-2. File: FLAb, binding data.